Assay: Solubility (Method B): solvent added in portions until a clear solution is obtained
Type: physicochemical
Conditions: water solubility versus free acid
Description: Method B-Solubility Measurement of the water solubility of the salts of this invention is accomplished by using methods well known to those skilled in the art. Specifically, to a weighed amount of DSB (+)-[…], DSB choline […], DSB diethanolamine […], or DSB diethylamine […], a solvent is added in small portions until a clear solution is obtained. The total volume of the solution is measured. The solubility of the particular DSB salt, in mg/mL, is calculated by dividing the weight of the salt (in mg), by the volume of the solution (in mL).

Question: With bis-choline salt of DSB [DSB-2 Choline] as the substance, how does the “Increase in solubility as compared to the DSB free acid” value read?
Answer: greater than 16 fold
